Source: patent US8242152B2, “Use of 4-[(4-thiazolyl)phenoxy]alkoxy-benzamidine derivatives for the prophylaxis and treatment of osteoporosis” (Dong Wha Pharmaceutical Co., Ltd., priority 2001, dated 2012)

System: ovariectomized ddY mice
Assay: Prophylactic effects in ovariectomized ddY mouse model (estrogen-deficient osteoporosis)
Format: in vivo
Details: right tibia; 10 mg/kg oral once a day for 6 weeks (F10, D10)
Excerpt: The effects of a drug would be based on histomorphometric changes of trabecular bone and thickness cortical bone in this model.
The objective of present study is to observe the prophylactic effect of DW1350MSA, and administration of drug was initiated 3 days after ovariectomy for prophylaxis study. The results were compared to that of Fosamax, well-documented anti-osteoporotic agents.
Twenty-five female ddY mice (6-wk old upon receipt, SLC, Japan) were used after acclimatization for 7 days. Animals were allocated 5 per polycarbonate cage in a temperature (20-25° C.) and humidity (30-35%) controlled room. Light:dark cycle was 12 hr:12 hr and feed (Samyang, Korea) and water were supplied free to access. […]
Histomorphometric changes of tibia and femur were evaluated. All histomorphometric indices including trabecular bone volume (TBV, %), thickness of trabecular bone (Tbt), trabecular bone number (Tbn), and length of trabeculer bone (Tbl) were calculated using automated image analysis (analysis Image Processing; SIS, Germany) under magnification 200 (×200) of microscopy (Zeiss, Germany) in the epiphyseal regions of right tibia and/or femur. In addition, cortical bone thickness (Cbt) was measured in mid-shaft region of right tibia and femur. […] Tbt and Tbl were calculated as um levels, and Tbn were calculated as number/whole sectional part of epiphyseal regions levels. • C. […]

NCCCC(O)(P(=O)(O)O)P(=O)(O)O [Fosamax, Alendronate]
Ocn, osteoclast cell number: 9.40 ± 2.30 number
